Assay results as given in US20250313563A1, “GLYCOGEN SYNTHASE KINASE 3 INHIBITORS AND USES THEREOF” (The Broad Institute, Inc., priority 2022, published 2025).

Amino acid sequences for entries named in this document (tags omitted).
UniProt P49840, whole entry: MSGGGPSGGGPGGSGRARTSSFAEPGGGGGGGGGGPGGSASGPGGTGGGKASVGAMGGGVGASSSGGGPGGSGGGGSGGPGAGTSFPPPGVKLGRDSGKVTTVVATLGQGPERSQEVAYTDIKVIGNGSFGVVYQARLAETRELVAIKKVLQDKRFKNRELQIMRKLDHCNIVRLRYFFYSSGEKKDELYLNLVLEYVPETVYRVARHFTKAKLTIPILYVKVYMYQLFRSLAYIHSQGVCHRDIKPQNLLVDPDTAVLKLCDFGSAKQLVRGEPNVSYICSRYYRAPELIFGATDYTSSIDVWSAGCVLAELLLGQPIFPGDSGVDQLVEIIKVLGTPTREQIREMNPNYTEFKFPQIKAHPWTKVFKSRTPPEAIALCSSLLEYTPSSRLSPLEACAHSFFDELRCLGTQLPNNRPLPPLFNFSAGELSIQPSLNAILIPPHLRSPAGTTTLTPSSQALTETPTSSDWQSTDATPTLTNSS
UniProt P49841, whole entry: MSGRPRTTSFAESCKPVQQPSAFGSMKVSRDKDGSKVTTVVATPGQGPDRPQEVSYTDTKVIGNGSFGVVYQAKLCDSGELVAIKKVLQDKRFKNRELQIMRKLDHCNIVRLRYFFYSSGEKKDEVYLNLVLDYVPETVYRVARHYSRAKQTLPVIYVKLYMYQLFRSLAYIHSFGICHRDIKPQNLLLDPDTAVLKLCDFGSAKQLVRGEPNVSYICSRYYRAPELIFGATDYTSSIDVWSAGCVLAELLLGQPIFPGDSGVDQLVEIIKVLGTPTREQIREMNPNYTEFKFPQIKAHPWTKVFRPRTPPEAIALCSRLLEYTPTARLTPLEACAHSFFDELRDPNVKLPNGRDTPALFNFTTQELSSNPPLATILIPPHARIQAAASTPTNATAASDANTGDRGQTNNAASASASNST

Key:
[1] = biological target: GSK3α (GST-full length GSK3α) (Homo sapiens (Human), UniProt P49840); assay: GSK3α TR-FRET kinase assay; format: biochemical
[2] = biological target: GSK3b (GST-full length GSK3b) (Homo sapiens (Human), UniProt P49841); assay: GSK3b TR-FRET kinase assay; format: biochemical
[3] = read-out: GSK3-A TR-FRET BIOCHEMICAL (TR-FRET), GMean, IC50, 1 nM GSK3α, 4 μM ATP, 30 minute preincubation, geometric mean
[4] = read-out: GSK3-B TR-FRET BIOCHEMICAL (TR-FRET), GMean, IC50, 1 nM GSK3b, 2 μM ATP, 30 minute preincubation, geometric mean
[5] = read-out: GSK3-A TR-FRET BIOCHEMICAL (TR-FRET), IC50, 1 nM GSK3α, 4 μM ATP, 30 minute preincubation (Table 16)
[6] = read-out: GSK3-B TR-FRET BIOCHEMICAL (TR-FRET), IC50, 1 nM GSK3b, 2 μM ATP, 30 minute preincubation (Table 16)
[7] = read-out: GSK3-A (TR-FRET 1 mM ATP), GMean, IC50, 1 mM ATP, geometric mean
[8] = read-out: GSK3-B (TR-FRET 1 mM ATP), GMean, IC50, 1 mM ATP, geometric mean
[9] = read-out: GSK3-A TR-FRET BIOCHEMICAL (TR-FRET), IC50, 1 nM GSK3α, 4 μM ATP, 30 minute preincubation
[10] = read-out: GSK3-B TR-FRET BIOCHEMICAL (TR-FRET), IC50, 1 nM GSK3b, 2 μM ATP, 30 minute preincubation
[11] = read-out: GSK3-A TR-FRET BIOCHEMICAL (TR-FRET);, 1 nM GSK3α, 4 μM ATP, 30 minute preincubation, Table 16
[12] = read-out: GSK3-B TR-FRET BIOCHEMICAL (TR-FRET);, 1 nM GSK3b, 2 μM ATP, 30 minute preincubation, Table 16

| SMILES | IC50 [1, 3] [nM] | IC50 [2, 4] [nM] | IC50 [1, 5] [nM] | IC50 [2, 6] [nM] | also measured |
| --- | --- | --- | --- | --- | --- |
| CCC1(c2cccc(Cl)c2)C2=C(CC(C)(C)CC2=O)Nc2n[nH]c(C(F)(F)F)c21 (stereo not drawn) [Compound 801309] | < 100 | < 100 |  |  |  |
| CC[C@@]1(c2cccc(-c3cc(C)nnc3C)c2)C2=C(CC(C)(C)NC2=O)Nc2n[nH]c(C)c21 |  |  | < 100 | 100 to 1000 |  |
| CC[C@]1(c2cccc(Br)c2)C2=C(C[C@H](C)CC2=O)Nc2n[nH]cc21 | > 5000 | > 5000 |  |  |  |
| CC[C@]1(c2cccc(-c3ccnc(C)c3)c2)C2=C(CC(C)(C)CC2=O)Nc2n[nH]c(C(F)(F)F)c21 |  |  | < 100 | < 100 | IC50 [1, 7]: < 100 nM; IC50 [2, 8]: 100 to 1000 nM |
| CC[C@@]1(c2cccc(-c3cnn(C(C)C)c3F)c2)C2=C(CC(C)(C)NC2=O)Nc2n[nH]cc21 |  |  | 100 to 1000 | 1000 to 5000 |  |
| CC[C@]1(c2cccc(Br)c2)C2=C(C[C@@H](C(F)(F)F)CC2=O)Nc2n[nH]cc21 | > 5000 | > 5000 |  |  |  |
| CC1(C)CC(=O)C2=C(C1)Nc1n[nH]cc1[C@@]21COC2(CN(C(=O)[C@H]3CC3(F)F)C2)C1 |  |  |  |  | IC50 [1, 9]: 100 to 1000 nM; IC50 [2, 10]: 1000 to 5000 nM |
| CCC1(c2cccc(S(=O)(=O)C(C)C)c2)C2=C(CC(C)(C)NC2=O)Nc2n[nH]c(C)c21 (stereo not drawn) [Compound 947876] | < 100 | < 100 |  |  |  |
| CC[C@@]1(c2cccc(-c3ccnc(C)c3)c2)C2=C(C[C@]3(CCOC3)NC2=O)Nc2n[nH]cc21 | < 100 | 100 to 1000 |  |  |  |
| CC[C@]1(c2cccc(-c3cnnc(C)c3)c2)C2=C(CC(C)(C)NC2=O)Nc2n[nH]cc21 |  |  |  |  | IC50 [1, 7]: 100 to 1000 nM; IC50 [1, 9]: < 100 nM; IC50 [2, 8]: > 5000 nM; IC50 [2, 10]: 100 to 1000 nM |
| CC[C@H]1CCN1c1cccc([C@]2(CC)C3=C(CC(C)(C)CC3=O)Nc3n[nH]cc32)c1 |  |  | < 100 | 100 to 1000 |  |
| CC[C@]1(c2cccc(-c3ccnc(N(C)C)c3)c2)C2=C(CC(C)(C)CC2=O)Nc2n[nH]c(C)c21 |  |  | 100 to 1000 | 1000 to 5000 |  |
| CCC1(c2cccc(-c3ccnc(C(C)(C)C)c3)c2)C2=C(CC(C)(C)CC2=O)Nc2n[nH]cc21 (stereo not drawn) |  |  |  |  | IC50 [1, 11]: 100 to 1000 nM; IC50 [2, 12]: 1000 to 5000 nM |
| CCC1(c2cccc(-c3cn(C)nc3C(C)C)c2)C2=C(CC(C)(C)CC2=O)Nc2n[nH]c(C)c21 (stereo not drawn) |  |  | < 100 | 100 to 1000 |  |
| CC[C@@]1(c2cccc(C(F)(F)F)c2)C2=C(CC(C)(C)CC2=O)Nc2n[nH]c(C)c21 | < 100 | < 100 |  |  |  |
| CC(C)(C)Cc1[nH]nc2c1[C@]1(CCCc3ccccc31)C1=C(CC(C)(C)CC1=O)N2 | 1000 to 5000 | 100 to 1000 |  |  |  |
| CC[C@@]1(c2cccc(-c3ccncc3C(F)(F)F)c2)C2=C(CC(C)(C)CC2=O)Nc2n[nH]cc21 |  |  |  |  | IC50 [1, 11]: 100 to 1000 nM; IC50 [2, 12]: 1000 to 5000 nM |
| CC[C@]1(c2cccc(N(C)c3ccnc(OC)c3)c2)C2=C(CC(C)(C)CC2=O)Nc2n[nH]cc21 |  |  |  |  | IC50 [1, 11]: > 5000 nM; IC50 [2, 12]: > 5000 nM |
| CC[C@]1(c2cccc(-c3ccnc4ccncc34)c2)C2=C(CC(C)(C)NC2=O)Nc2n[nH]cc21 |  |  | < 100 | 100 to 1000 | IC50 [1, 7]: 100 to 1000 nM; IC50 [2, 8]: > 5000 nM |
| CC[C@]1(c2cccc(-c3ccnc(OC)c3F)c2)C2=C(CC(C)(C)NC2=O)Nc2n[nH]cc21 | 100 to 1000 | > 5000 |  |  |  |
| CC[C@@]1(c2cccc(Br)c2)C2=C(C[C@H](C)CC2=O)Nc2n[nH]c(C(F)(F)F)c21 | 100 to 1000 | 100 to 1000 |  |  |  |
| CC[C@@]1(c2cccc(-c3ccnc(C)c3)c2)C2=C(CC(C)(C)[C@@H](F)C2=O)Nc2n[nH]cc21 |  |  |  |  | IC50 [1, 11]: > 5000 nM; IC50 [2, 12]: > 5000 nM |
| CCC1(c2cccc(N3CC4CCC(C4)C3)c2)C2=C(CC(C)(C)CC2=O)Nc2n[nH]cc21 (stereo not drawn) |  |  | 100 to 1000 | 1000 to 5000 |  |
| CC[C@@]1(c2cccc(-c3ccnc(C)c3)c2)C2=C(C[C@]3(CCCOC3)NC2=O)Nc2n[nH]cc21 | < 100 | 100 to 1000 |  |  |  |
| CCC1(c2cccc(-c3cc(C)ncn3)c2)C2=C(CC(C)(C)CC2=O)Nc2n[nH]cc21 (stereo not drawn) |  |  |  |  | IC50 [1, 11]: < 100 nM; IC50 [2, 12]: 100 to 1000 nM |
| CC[C@@]1(c2cccc(-c3ccnc(C)c3)c2)C2=C(C[C@@H](C)NC2=O)Nc2n[nH]cc21 |  |  |  |  | IC50 [1, 9]: < 100 nM; IC50 [2, 10]: 1000 to 5000 nM |
| CC[C@@]1(c2cccc(N(C)c3ncccn3)c2)C2=C(CC(C)(C)CC2=O)Nc2n[nH]cc21 |  |  | < 100 | < 100 | IC50 [1, 7]: < 100 nM; IC50 [2, 8]: 100 to 1000 nM |
| CCC1(c2cccc(-c3cnn(C)c3)c2)C2=C(CC(C)(C)CC2=O)Nc2n[nH]c(C)c21 (stereo not drawn) |  |  | < 100 | 100 to 1000 |  |
| CC1(C)CC(=O)C2=C(C1)Nc1n[nH]cc1[C@@]21COC2(CN(C(=O)C3CCCC3)C2)C1 |  |  |  |  | IC50 [1, 9]: < 100 nM; IC50 [2, 10]: < 100 nM |

Where two headings read alike, the source gives them in different places.
